# scFv variants of Ab-14 (light chain) against a SARS-CoV-2 spike peptide

Binding partner: SARS-CoV-2 spike HR2 peptide, sequence PDVDLGDISGINAS.

Each scFv is VH, three GGGGS repeats, VL, as in the parent Ab-14, and differs from it in the CDRs of the light chain only.
VH: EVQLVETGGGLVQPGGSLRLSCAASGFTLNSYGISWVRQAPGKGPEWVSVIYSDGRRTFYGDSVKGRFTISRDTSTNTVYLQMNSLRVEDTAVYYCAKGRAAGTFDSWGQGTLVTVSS
VL: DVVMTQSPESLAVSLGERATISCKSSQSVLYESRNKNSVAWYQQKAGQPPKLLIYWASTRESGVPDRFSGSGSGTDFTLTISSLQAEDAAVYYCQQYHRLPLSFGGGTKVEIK

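The starting antibody came from a phage panning campaign against this peptide. These sequences belong to a second round, designed from the earlier measurements on random variants of the parent. Several design methods are mixed in this list. Affinity was read by AlphaSeq, a pooled yeast mating assay with surface-displayed partners. Binding brings cells together so that they mate, and sequencing counts the barcode pairs among the diploids. Scores were corrected for input abundance and mapped to Kd with protein pairs of known affinity run in the same pool. The assay was run in six technical replicates.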

Sequences are complete VL domains. This list holds designs with more than six substitutions. Affinities are written as log10 Kd with Kd in nM; a lower number is a better binder. A mean of the replicates is given; it leaves out those without a signal. "not detected" marks a missing value. The strain was present, yet no cells mated with the target were sequenced in any replicate, which points to weak or no binding.

| VL | mean, log10 nM | replicates with signal | signal with controls |
|---|---|---|---|
| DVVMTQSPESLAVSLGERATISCKLQQSVGYESRNKNNVAWYQQKAGQPPKLLIYEGSQRESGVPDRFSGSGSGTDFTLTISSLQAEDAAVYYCQQYHRLPLSFGGGTKVEIK | -0.34 | 6 of 6 | 0 of 18 |
| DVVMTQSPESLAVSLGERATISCKSQQEWEGQSRNKNSVAWYQQKAGQPPKLLIYHASKRESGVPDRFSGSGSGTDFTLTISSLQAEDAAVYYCQQYHRLPLSFGGGTKVEIK | 0.59 | 6 of 6 | 0 of 18 |
| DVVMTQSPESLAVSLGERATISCKFEQLDGQESRNKNSVAWYQQKAGQPPKLLIYNASQREDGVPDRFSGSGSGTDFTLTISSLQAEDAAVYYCQQYHRLPLSFGGGTKVEIK | 0.14 | 6 of 6 | 1 of 18 |
| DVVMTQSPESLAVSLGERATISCHIDILNRGEYLKQDDIAWYQQKAGQPPKLLIYNADHREQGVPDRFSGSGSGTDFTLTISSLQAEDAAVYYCQQYFHLPLAFGGGTKVEIK | 1.06 | 6 of 6 | 0 of 18 |
| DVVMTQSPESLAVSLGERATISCKLPQSWLYESQNSNSVAWYQQKAGQPPKLLIYHASQREDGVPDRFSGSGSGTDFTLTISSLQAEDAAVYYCQQYHRLPLSFGGGTKVEIK | -0.30 | 6 of 6 | 2 of 18 |
| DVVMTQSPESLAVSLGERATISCQLEWDQLWGANYDYSVAWYQQKAGQPPKLLIYAQDVISPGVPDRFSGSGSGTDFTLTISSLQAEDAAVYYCQQYDRLPLIFGGGTKVEIK | 1.97 | 2 of 6 | 2 of 18 |
| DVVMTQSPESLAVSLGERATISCKVSEFMRGLTQRKDSIAWYQQKAGQPPKLLIYDNVTRGNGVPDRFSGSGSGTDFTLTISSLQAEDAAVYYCQQYDRLPLSFGGGTKVEIK | 2.41 | 3 of 6 | 0 of 18 |
| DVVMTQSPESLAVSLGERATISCKLMVSTMLESHNKNSIAWYQQKAGQPPKLLIYDLSTRGNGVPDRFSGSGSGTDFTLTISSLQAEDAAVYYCQQYHRLPLSFGGGTKVEIK | 0.02 | 6 of 6 | 1 of 18 |
| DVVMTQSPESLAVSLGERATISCKLSQSMGYEERNKNSVAWYQQKAGQPPKLLIYHASQRMSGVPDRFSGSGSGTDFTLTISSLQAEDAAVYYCQQYHRLPLSFGGGTKVEIK | -0.01 | 6 of 6 | 2 of 18 |
| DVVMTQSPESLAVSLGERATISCTISQLHNMGTFAINSVAWYQQKAGQPPKLLIYQASIRNEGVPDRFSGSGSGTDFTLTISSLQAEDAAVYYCQQYDRLPLMFGGGTKVEIK | 0.91 | 6 of 6 | 2 of 18 |
| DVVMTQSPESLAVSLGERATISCKMSVHLYDAKNRDMSIAWYQQKAGQPPKLLIYDEELHTIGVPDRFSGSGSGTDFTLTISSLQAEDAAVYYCQQYNRLPFSFGGGTKVEIK | not detected | 0 of 6 | 0 of 18 |
| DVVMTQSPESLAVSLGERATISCKVSILDDGGDRNKNSVAWYQQKAGQPPKLLIYHASLRESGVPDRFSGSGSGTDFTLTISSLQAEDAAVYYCQQYHRLPLSFGGGTKVEIK | 0.40 | 5 of 6 | 0 of 18 |
| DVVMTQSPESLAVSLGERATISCKLSQSNKYESRMKNSVAWYQQKAGQPPKLLIYQASQREQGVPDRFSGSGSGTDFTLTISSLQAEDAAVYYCQQYHRLPLSFGGGTKVEIK | 0.26 | 6 of 6 | 2 of 18 |
| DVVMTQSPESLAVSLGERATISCHLSQSVGGESRNKNSVAWYQQKAGQPPKLLIYEAQTREQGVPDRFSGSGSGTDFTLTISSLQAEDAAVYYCQQYHRLPLSFGGGTKVEIK | -0.19 | 6 of 6 | 2 of 18 |
| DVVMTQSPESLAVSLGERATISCKIGSGTNGEKFTSNSVAWYQQKAGQPPKLLIYQTSTREEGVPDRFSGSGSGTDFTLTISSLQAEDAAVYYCQQYHRLPLSFGGGTKVEIK | 0.62 | 6 of 6 | 1 of 18 |
| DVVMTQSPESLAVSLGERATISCSMMFDTSDNYHERNNIAWYQQKAGQPPKLLIYEQATIMAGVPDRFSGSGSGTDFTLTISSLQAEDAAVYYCQQYSWLPLSFGGGTKVEIK | not detected | 0 of 6 | 0 of 18 |
| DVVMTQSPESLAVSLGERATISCKLTNVTGTEKVLGNNVAWYQQKAGQPPKLLIYEMETRERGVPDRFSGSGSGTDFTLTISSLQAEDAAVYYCQQYNRLPLSFGGGTKVEIK | 0.91 | 6 of 6 | 0 of 18 |
| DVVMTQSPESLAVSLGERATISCKLPMSTMQESVSKNSVAWYQQKAGQPPKLLIYELSTRGSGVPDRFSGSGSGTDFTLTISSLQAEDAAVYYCQQYHRLPLSFGGGTKVEIK | 0.42 | 6 of 6 | 0 of 18 |

Excerpt, the first 3 entries:

| VL | mean, log10 nM | replicates with signal | signal with controls |
|---|---|---|---|
| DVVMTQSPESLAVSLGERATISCKLQQSVGYESRNKNNVAWYQQKAGQPPKLLIYEGSQRESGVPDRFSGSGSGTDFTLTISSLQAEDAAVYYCQQYHRLPLSFGGGTKVEIK | -0.34 | 6 of 6 | 0 of 18 |
| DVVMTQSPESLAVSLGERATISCKSQQEWEGQSRNKNSVAWYQQKAGQPPKLLIYHASKRESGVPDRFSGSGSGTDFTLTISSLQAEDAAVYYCQQYHRLPLSFGGGTKVEIK | 0.59 | 6 of 6 | 0 of 18 |
| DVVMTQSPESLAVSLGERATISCKFEQLDGQESRNKNSVAWYQQKAGQPPKLLIYNASQREDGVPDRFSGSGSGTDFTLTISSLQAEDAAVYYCQQYHRLPLSFGGGTKVEIK | 0.14 | 6 of 6 | 1 of 18 |

The authors averaged sequences with at least three values out of six and counted those with two or fewer as poor binders. The parent sequence was in this pool as ten entries: three were never detected, three once, and four in most replicates, with averages from 0.34 to 2.37. Empty control strains, which show no peptide, gave a signal in 4% of pairings with all light chain designs; the median was 2.64 and 95% of these signals were weaker than 1.59. No background was subtracted. The control count says in how many pairings with the empty strains this scFv gave a signal. The range of this assay differs from that of the first round, and the authors advise against merging the two.

The measurements come from Li et al. 2023 (doi:10.1038/s41467-023-39022-2) through the FLAb antibody collection.